{"source": "ChEMBL document CHEMBL4014348", "about": "“Design, Multicomponent Synthesis, and Anticancer Activity of a Focused Histone Deacetylase (HDAC) Inhibitor Library with Peptoid-Based Cap Groups” (J Med Chem, 2017)", "target": "T1, Histone deacetylase 8 (Homo sapiens, UniProt Q9BY41)", "T1 sequence (Q9BY41 whole entry)": "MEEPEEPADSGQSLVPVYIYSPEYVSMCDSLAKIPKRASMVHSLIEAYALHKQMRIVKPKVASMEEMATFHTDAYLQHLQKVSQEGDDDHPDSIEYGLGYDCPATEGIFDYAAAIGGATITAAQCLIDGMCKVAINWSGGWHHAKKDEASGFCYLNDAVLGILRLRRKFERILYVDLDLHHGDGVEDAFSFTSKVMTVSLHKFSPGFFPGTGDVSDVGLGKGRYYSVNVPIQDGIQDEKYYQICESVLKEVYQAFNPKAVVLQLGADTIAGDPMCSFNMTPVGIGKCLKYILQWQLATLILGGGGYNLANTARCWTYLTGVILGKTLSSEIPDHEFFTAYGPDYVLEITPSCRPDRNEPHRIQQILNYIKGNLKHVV", "assay": "Inhibition of human recombinant HDAC8 expressed in Escherichia coli using Z-L-Lys(epsilon-trifluoroacetyl)-AMC as substrate measured after 90 mins by fluorescence assay"}
{"smiles": "O=C(CCCCCCC(=O)Nc1ccccc1)NO", "note": "[VORINOSTAT]", "values": [{"measurement": "IC50", "result": 1.26, "unit": "µM"}]}
